Antibody variant affinities, Ab-95 light chain, assay 2

From the AlphaSeq antibody data of Engelhart et al. 2022 (doi:10.1038/s41597-022-01779-4), copy in the FLAb collection.

The target is the same throughout: PDVDLGDISGINAS, from the HR2 region of SARS-CoV-2 spike.

The variants keep the heavy chain, the linker and the frameworks of Ab-95 (scFv order VH, three GGGGS repeats, VL).
VH: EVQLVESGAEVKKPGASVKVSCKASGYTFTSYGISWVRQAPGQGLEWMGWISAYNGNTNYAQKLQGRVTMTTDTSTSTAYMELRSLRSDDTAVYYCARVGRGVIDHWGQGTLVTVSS
VL: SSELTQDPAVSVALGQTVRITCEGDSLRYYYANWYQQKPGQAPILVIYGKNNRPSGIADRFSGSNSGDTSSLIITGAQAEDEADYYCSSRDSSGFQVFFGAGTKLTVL

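The starting antibody came from a phage panning campaign against this peptide. Library AAYL52 holds single substitutions and randomly drawn double and triple substitutions in the CDRs. In AlphaSeq, yeast of one mating type display the scFv and yeast of the other type display the target. Binding brings cells together so that they mate, and sequencing counts the barcode pairs among the diploids. Read counts were normalised to the haploid input and turned into Kd by a linear fit to BCL2-family pairs of known affinity, for each replicate. There are three technical replicates.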

Changes read parent residue, position, new residue, counted from the first residue of the VL shown. Every variant below is changed at R90 of the VL (sequential numbering). The Kd shown is the geometric mean over detected replicates; a lower Kd is a better binder. A pair that was not seen in any replicate is written "not detected"; this usually means weak binding, but a binder can also be missed. Order: sorted from the lowest average up, undetected variants last. Nonspecific signal, from three strains lacking the peptide, appeared in 28% of pairings of library AAYL52, centred on 8.2 µM (5% of these signals below 800 nM); values are not corrected for it. Parent in this assay: reference entry 200 nM, copy in this library 180 nM.

changes,Kd,replicates with signal
Y31N R90H D91C,37 nM,3 of 3
Y29C Y30S R90T,46 nM,3 of 3
Y29H Y31M R90L,50 nM,3 of 3
E23N Y30S R90N,200 nM,3 of 3
N52T R90D S92Y,290 nM,3 of 3
Y31S N51A R90W,320 nM,3 of 3
R90S S92I,370 nM,3 of 3
P54D R90M S92G,410 nM,3 of 3
R90M V97Q,420 nM,3 of 3
R90I D91P,430 nM,3 of 3
R28S A32S R90W,560 nM,3 of 3
R90T D91T F95P,580 nM,3 of 3
Y29T S88D R90N,800 nM,1 of 3
D25L Y31K R90V,910 nM,1 of 3
D25K R90S F95V,1.1 µM,1 of 3
L27N R90W Q96V,1.3 µM,3 of 3
D25L S55F R90Q,1.4 µM,3 of 3
R53H S55P R90E,1.4 µM,3 of 3
E23H L27N R90A,1.5 µM,2 of 3
G49L R90A F95E,1.9 µM,2 of 3
N33F R90C G94W,2.0 µM,3 of 3
N51L S55A R90I,2.3 µM,3 of 3
S26T R90G S92D,2.6 µM,3 of 3
R28K Y30V R90H,2.8 µM,3 of 3
R53Q R90I F98R,2.9 µM,1 of 3
N51K R90P F95Q,3.5 µM,2 of 3
L27K G49C R90Q,3.8 µM,1 of 3
N33K S89T R90P,3.8 µM,1 of 3
A32I R53I R90W,4.3 µM,1 of 3
R90V S93L,4.4 µM,2 of 3
A32C K50V R90E,4.5 µM,1 of 3
S26F Y29F R90I,5.3 µM,3 of 3
N33A R90C,5.5 µM,3 of 3
R90D Q96I F98H,6.0 µM,1 of 3
Y29M R53P R90G,6.5 µM,1 of 3
P54H S88D R90G,6.6 µM,3 of 3
R90L,8.7 µM,2 of 3
E23S S88G R90E,8.9 µM,2 of 3
L27S R90H F95D,9.1 µM,3 of 3
G24T L27G R90N,9.4 µM,2 of 3
Y31G A32Q R90E,9.9 µM,2 of 3
E23V N33R R90E,14 µM,2 of 3
D25I G49V R90A,16 µM,2 of 3
E23Y R28G R90N,22 µM,2 of 3
S26D N51R R90A,22 µM,2 of 3
K50Q R90G S93F,23 µM,1 of 3
R90I,29 µM,2 of 3
P54M R90T,36 µM,2 of 3
Y30L S88G R90M,37 µM,1 of 3
D25T L27V R90Y,68 µM,2 of 3
G24L R90W D91K,74 µM,2 of 3
N51I R53L R90M,150 µM,1 of 3
D25Q P54E R90H,290 µM,1 of 3
P54E S55I R90M,not detected,0 of 3
L27W R90A S93V,not detected,0 of 3
N51F R90V F95H,not detected,0 of 3
D25R S89T R90L,not detected,0 of 3
Y31Q N51R R90M,not detected,0 of 3
L27W R90V D91I,not detected,0 of 3
S26L L27I R90I,not detected,0 of 3